T1: recombinant cynomolgus monkey TREM-1 (cynomolgus monkey, UniProt A0A2K5VHG8 21-204)
T1 construct: Soluble recombinant protein injected as SPR analyte; construct not described; also called cTREM-1; cynomolgus TREM-1
T1 sequence: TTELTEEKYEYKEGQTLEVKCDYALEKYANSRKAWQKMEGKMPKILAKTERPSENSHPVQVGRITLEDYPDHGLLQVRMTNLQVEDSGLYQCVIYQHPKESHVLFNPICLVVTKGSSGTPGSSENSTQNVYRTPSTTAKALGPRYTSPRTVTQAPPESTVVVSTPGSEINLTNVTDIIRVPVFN


How the values were obtained:
recombinant human TREM-1 [1] = target: T2, recombinant human TREM-1 (human, UniProt Q9NP99 21-205); assay: SPR, Fab immobilised, human TREM-1 injected; average
T2 construct: Soluble recombinant protein injected as SPR analyte; also called hTREM-1
Method: (§1) Surface plasmon resonance (SPR): in order to evaluate the interaction kinetics for TREM-1 antibodies or Fabs to hTREM-1 (human TREM-1) and cTREM-1 (cynomolgus monkey TREM-1), surface plasmon resonance (SPR) assays were carried out (Biacore™ T200, GE Healthcare Biosciences). The anti-human Fc antibodies (Cytiva) were immobilized on CM5 sensor chip in order to evaluate IgG1 affinities and Fabs were directly immobilized on the chip. Immobilization experiments were performed at 25° C. using HBS-EP+1× running buffer (10 mM HEPES, 150 mM NaCl, 3 mM EDTA, 0.05% surfactant P20, pH 7.4). The anti-human Fc antibodies or Fabs were diluted in 10 mM sodium acetate at acidic pH before the immobilization procedure using amine coupling on the dextran matrix of the sensor chips. […] Following these injections, ethanolamine was injected to deactivate the surface. The immobilization wizard was used to obtain several thousand of immobilized RU (resonance units). The immobilization level was chosen in order to have a proper covering of the sensor chip surface. […] Binding of hTREM-1 or cTREM-1 proteins was conducted by injecting analyte over all flow cells. […] The concentrations were evaluated using the Single Cycle Kinetics method. This approach consists of a sequential injection of increasing concentration of the analyte, with a single regeneration step using a magnesium chloride buffer (Cytiva) at the end of the cycle. Binding affinity of TREM-1 antibodies or Fabs with hTREM-1 or cTREM-1 was quantified by determination of the equilibrium dissociation constant (KD) determined by measurement of the kinetics of complex formation and dissociation.

[2] = target: T3, human TREM-1 expressed on cells (U937-vitD3 cells, THP-1-vitD3 cells, human primary neutrophils, whole blood … (human, UniProt Q9NP99 21-234)); assay: cell-based or functional assay
recombinant human TREM-1 [3] = target: T2, recombinant human TREM-1; assay: SPR, Fab immobilised, human TREM-1 injected; replicate 1
Method: as §1

recombinant human TREM-1 [4] = target: T2, recombinant human TREM-1; assay: SPR, Fab immobilised, human TREM-1 injected; replicate 2
Method: as §1

[5] = target: T1, recombinant cynomolgus monkey TREM-1; assay: SPR, Fab immobilised, cynomolgus TREM-1 injected; replicate 2
Method: as §1

[6] = target: T1, recombinant cynomolgus monkey TREM-1; assay: SPR, Fab immobilised, cynomolgus TREM-1 injected; average
Method: as §1

[7] = target: T1, recombinant cynomolgus monkey TREM-1; assay: SPR, Fab immobilised, cynomolgus TREM-1 injected; replicate 1
Method: as §1

[8] = target: T3, human TREM-1 expressed on cells …; assay: flow cytometry on freshly isolated human primary neutrophils, MFI against Fab concentration
[9] = target: T3, human TREM-1 expressed on cells …; assay: flow cytometry on freshly isolated human neutrophils; freshly isolated human neutrophils
[10] = target: T1, recombinant cynomolgus monkey TREM-1; assay: SPR, Fab immobilised, cynomolgus TREM-1 injected; replicate 1; replicate 1
Method: Surface plasmon resonance (SPR): in order to evaluate the interaction kinetics for TREM-1 antibodies or Fabs to hTREM-1 (human TREM-1) and cTREM-1 (cynomolgus monkey TREM-1), surface plasmon resonance (SPR) assays were carried out (Biacore™ T200, GE Healthcare Biosciences). The anti-human Fc antibodies (Cytiva) were immobilized on CM5 sensor chip in order to evaluate IgG1 affinities and Fabs were directly immobilized on the chip. Immobilization experiments were performed at 25° C. using HBS-EP+1× running buffer (10 mM HEPES, 150 mM NaCl, 3 mM EDTA, 0.05% surfactant P20, pH 7.4). The anti-human Fc antibodies or Fabs were diluted in 10 mM sodium acetate at acidic pH before the immobilization procedure using amine coupling on the dextran matrix of the sensor chips. […] Following these injections, ethanolamine was injected to deactivate the surface. The immobilization wizard was used to obtain several thousand of immobilized RU (resonance units). The immobilization level was chosen in order to have a proper covering of the sensor chip surface. […] The concentrations were evaluated using the Single Cycle Kinetics method. […] Binding affinity of TREM-1 antibodies or Fabs with hTREM-1 or cTREM-1 was quantified by determination of the equilibrium dissociation constant (KD) determined by measurement of the kinetics of complex formation and dissociation.

Binder	Kd (recombinant human TREM-1 [1]) [nM]	koff (recombinant human TREM-1 [1]) [s⁻¹]	kon (recombinant human TREM-1 [1]) [M⁻¹ s⁻¹]	Kd (recombinant human TREM-1 [3]) [nM]	koff (recombinant human TREM-1 [3]) [s⁻¹]	kon (recombinant human TREM-1 [3]) [M⁻¹ s⁻¹]	Kd (recombinant human TREM-1 [4]) [nM]	koff (recombinant human TREM-1 [4]) [s⁻¹]	kon (recombinant human TREM-1 [4]) [M⁻¹ s⁻¹]	koff [5] [s⁻¹]	kon [5] [M⁻¹ s⁻¹]	koff [6] [s⁻¹]	kon [6] [M⁻¹ s⁻¹]	koff [7] [s⁻¹]	kon [7] [M⁻¹ s⁻¹]	also measured
humanized anti-TREM-1 Fab fragment INO-10F-1 (Fab, V domains shown, Fab; CDRs identical to INO-10F except for one amino acid in VH-CDR2) VH: EVQLVESGGALVKPGGSLRLSCAASGFNIKNTYIHWVRQAPGKGLEWIGRIDPANGNTKYAPKVQGRFTISADTSKNTAYLQMNSLKTEDTAVYYCTGHYGSTMDYWGQGTLVTVSS VL: EIVLTQSPATLSLSPGERATLSCRASESVDNYGISFMNWFQQKPGQAPRLLIYAASNQGSGIPARFSGSGSGTDFTLTISSLEPEDFAVYFCQQSKEVPWTFGQGTKVEIK	6.79	0.00117	174000	5.76	0.00109	189000	7.81	0.00124	158000	–	–	–	–	–	–	IL-6 release by U937-vitD3 cells stimulated with the PGLYRP-1:PGN complex; IC50 [2]: ~0.5 µg/mL
humanized anti-TREM-1 Fab fragment INO-10F-4 (Fab, V domains shown, Fab) VH: EVQLVESGGALVKPGGSLRLSCAASGFNIGNTYIHWVRQAPGKGLEWVGRIDPAGGRTKYAPKVKGRFTISADDSKNTAYLQMNSLKTEDTAVYYCTGHRGGTMDYWGQGTLVTVSS VL: EIVLTQSPATLSLSPGERATLSCRASQSVSNYGISFLNWYQQKPGQAPRLLIYAAEYRGRGIPARFSGSGSGTDFTLTISSLEPEDFAVYYCQQSSNVPYTFGQGTKVEIK	1.02	0.000217	213000	0.961	0.000209	217000	1.07	0.000224	209000	0.000774	31700	0.000771	31400	0.000768	31000	–
humanized anti-TREM-1 Fab fragment INO-10F-2 (Fab, V domains shown, Fab) VH: EVQLVESGGALVKPGGSLRLSCAASGFNIGNTYIHWVRQAPGKGLEWIGRIDPAGGRTKYSPKVQGRFTISAPTSKNTAYLQMNSLKTEDTAVYYCTGHRGGTMDYWGQGTLVTVSS VL: EIVLTQSPATLSLSPGERATLSCRASQSVSNYGISFLNWYQQKPGQAPRLLIYAASYQKRGIPARFSGSGSGTDFTLTISSLEPEDFAVYYCQQSSNFPWTFGQGTKVEIK	1.52	0.000309	206000	1.29	0.000297	229000	1.75	0.000321	183000	0.0009	31600	0.000885	31400	–	–	–
humanized anti-TREM-1 Fab fragment INO-10F-3 (Fab, V domains shown, Fab) VH: EVQLVESGGALVKPGGSLRLSCAASGFNIDNTYIHWVRQAPGKGLEWIGRIDPAGGRTKYDPKVKGRFTISADTSKNTAYLQMNSLKTEDTAVYYCTGHYGGTMDYWGQGTLVTVSS VL: EIVLTQSPATLSLSPGERATLSCRASESVDNYGISFLNWYQQKPGQAPRLLIYAAEYRGRGIPARFSGSGSGTDFTLTISSLEPEDFAVYYCQQSRHVPYTFGQGTKVEIK	0.301	6.07e-05	202000	0.261	5.31e-05	203000	0.34	6.82e-05	200000	0.000245	31900	0.000243	31800	0.00024	31600	IL-6 release by U937-vitD3 cells stimulated with the PGLYRP-1:PGN complex; IC50 [2]: ~0.05 µg/mL; EC50 [8]: 0.0281 µg/mL; EC50 [9]: ~0.03 µg/mL
humanized anti-TREM-1 Fab fragment INO-10F-5 (Fab, V domains shown, Fab; also called E5) VH: EVQLVESGGALVKPGGSLRLSCAASGFNIGNTYIHWVRQAPGKGLEWIGRIDPAGGRTKYAPKVQGRFTISADTSKNTAYLQMNSLKTEDTAVYYCTGHYGGTMDYWGQGTLVTVSS VL: EIVLTQSPATLSLSPGERATLSCRASQSVSNYGISFLNWYQQKPGQAPRLLIYAAEYQGRGIPARFSGSGSGTDFTLTISSLEPEDFAVYYCQQSSNVPYTFGQGTKLEIK	0.74	0.00015	202000	0.884	0.00018	204000	0.595	0.000119	200000	0.000545	34700	0.000542	34500	0.000539	34200	Kd [5]: 15.7 nM; Kd [6]: 15.8 nM; Kd [7]: 15.8 nM
humanized anti-TREM-1 Fab fragment INO-10F-6 (Fab, V domains shown, Fab) VH: EVQLVESGGALVKPGGSLRLSCAASGFNIGNTYIHWVRQAPGKGLEWVGRIDPAGGRTKYAPKVKGRFTISADDSKNTLYLQMNSLKTEDTAVYYCTGHRGGTMDYWGQGTLVTVSS VL: EIVLTQSPATLSLSPGERATLSCRASQSVSNYGISFLNWYQQKPGQAPRLLIYAAEYRARGIPARFSGSGSGTDFTLTISSLEPEDFAVYYCQQSSNVPYTFGQGTKVEIK	3.96	0.000474	120000	3.89	0.000481	124000	4.03	0.000467	116000	0.00133	24900	0.00127	22500	0.00121	20100	–
anti-hTREM-1 Fab fragment INO-10F (Fab, V domains shown, Recombinant chimeric Fab (murine variable regions) made in CHO cells and purified on HisTrap Excel; also called INO-10 Fab) VH: AVQLQQSVAALVRPGASVKLSCTASGFNIKNTYIHWVKQRPEQGLEWIGRIDPANGNTKYAPKFQGKATITADTSSDTAYLQLSSLTSDDTAIYYCTGHYGSTMDYWGQGTSVTVSS VL: not shown	–	–	–	–	–	–	–	–	–	0.00147	22100	0.00177	28900	0.00207	–	kon [10]: 35700 M⁻¹ s⁻¹
